Results on 1 compound are retold here after publication PMC2862695 (The Journal of organic chemistry, 2009).

Protein sequences, listed by entry. Tags and fused reporters are not part of them.
UniProt P27361, whole entry: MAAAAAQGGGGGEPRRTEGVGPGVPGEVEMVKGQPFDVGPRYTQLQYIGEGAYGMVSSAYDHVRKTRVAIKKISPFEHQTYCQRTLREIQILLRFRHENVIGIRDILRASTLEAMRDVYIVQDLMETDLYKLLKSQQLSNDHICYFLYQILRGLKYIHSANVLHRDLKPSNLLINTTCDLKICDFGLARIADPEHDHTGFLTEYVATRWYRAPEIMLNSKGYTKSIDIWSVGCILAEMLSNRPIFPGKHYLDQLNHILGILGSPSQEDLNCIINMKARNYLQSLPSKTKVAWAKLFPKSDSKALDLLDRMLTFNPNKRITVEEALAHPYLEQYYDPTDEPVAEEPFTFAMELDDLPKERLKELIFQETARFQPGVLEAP
UniProt P28482, whole entry: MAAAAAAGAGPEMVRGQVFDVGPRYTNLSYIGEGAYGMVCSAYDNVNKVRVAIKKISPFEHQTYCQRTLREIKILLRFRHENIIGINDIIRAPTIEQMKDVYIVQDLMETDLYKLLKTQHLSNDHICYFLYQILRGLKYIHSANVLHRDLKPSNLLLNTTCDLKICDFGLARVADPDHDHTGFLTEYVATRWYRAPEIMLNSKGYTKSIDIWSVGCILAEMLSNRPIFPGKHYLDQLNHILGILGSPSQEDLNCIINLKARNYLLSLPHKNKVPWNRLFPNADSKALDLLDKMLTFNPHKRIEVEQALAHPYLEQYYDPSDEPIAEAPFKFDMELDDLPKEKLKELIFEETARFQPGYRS

Assay [1] deals with T1, ERK1 (Homo sapiens, UniProt P27361). In words: dissociation constant against ERK1. The class given is binding. Particulars: read-out: Kd ERK1.
For assay [2], the target named is T2, ERK2 (Homo sapiens, UniProt P28482). To be noted: read-out: Kd ERK2.
The target of assay [3] is T1, ERK1. To be noted: read-out: IC50 against ERK1; enzymatic assay; ref 2 (Ohori and co-workers); cited from earlier work.
Assay [4] concerns the target T2, ERK2. To be noted: read-out: IC50 against ERK2; enzymatic assay; ref 2 (Ohori and co-workers); cited from earlier work.

In the case of `Nc1[nH]nc2nnc(-c3c(-c4ccccc4)nn4ccccc34)cc12` [FR180204], the results for the Kd on ERK1 [1] and at ERK2 [2] were 160 nM and 420 nM, respectively. The results for the IC50 on ERK1 [3] and on ERK2 [4] were 510 nM and 330 nM, respectively.
